The test system of this test is BCAP37 breast cancer xenograft. Description: BCAP37 breast cancer xenograft model. The test is classed as in vivo. The conditions noted are these: NOD-SCID mice, 1.25, 5 and 20 mg/kg SNGmB1, 3 mg/kg Herceptin, 17 days. How it is done: The ability of anti-ER-α36 antibody in inhibiting human tumor cell growth in Xenograft model was assessed using BCAP37 breast cancer model. […] The cells were implanted into NOD-SCID mice. When the tumor grown to 80-120 mm3 size, the mice were randomized into groups of 10 mice and been treated either with mouse IgG2b or SNGmB1 antibody or Herceptin, at a does of 1.25, 5 and 20 mg/kg for SNGmB1, or 3 mg/kg for Herceptin. After 17 days of treatment, the tumors were excised, and both tumor weight and volume were measured.

As to “Herceptin: anti-HER2 antibody [reference compound]”, the “inhibition of tumor growth” value is recorded as “inhibit tumor growth”.

The values are drawn from US10233249B2, “Antibodies and methods for treating estrogen receptor-associated diseases” (BEIJING SHENOGEN PHARMA GROUP LTD., priority 2013, dated 2019).
